The entries are a selection whose mix differs from that of the whole data set. Active and inactive are the calls of the source. Cut-off read from the data, not from the text of the source: active = inhibition above about 4.5%; inactive = the rest.
System: Methionine sulfoxide reductase A (Bos taurus)
Assay: inhibition of methionine sulfoxide reductase A – biochemical, absorbance, bovine, HTS, primary screen (AID 651718);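 note: 0% = vehicle wells with enzyme and 100% = reference inhibitor wells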
Conditions: purified bovine MsrA, absorbance read-out; at 15.5 µM; hits give high values

| SMILES | inhibition |
| --- | --- |
| O=C(NCC1(N2CCCCC2)CCCCC1)c1ccco1 | inactive: -0.47% |
| CN(C)c1ccc(C(=O)NCC2(N3CCCCC3)CCCCC2)cc1 | inactive: 1.4% |
| Cn1c(=O)[nH]cc(N(CCCl)CCCl)c1=O | inactive: -0.14% |
| Cc1ccccc1NC1(C#N)CCN(Cc2ccccc2)CC1 | inactive: -0.67% |
| COc1ccc(C(c2nnnn2C2CCCCC2)N2CCC(n3c(=O)[nH]c4ccccc43)CC2)cc1 (stereo not drawn) | inactive: -1.27% |
| CCN1CCC(Nc2cccc(F)c2)CC1 | inactive: -0.31% |
| CC(C)(C)n1nnnc1C(c1ccnc2ccccc12)N1CCC(n2c(=O)[nH]c3ccccc32)CC1 (stereo not drawn) | inactive: -0.64% |
| Cc1ccc(C(=O)NCC2(N3CCCCC3)CCCCC2)o1 | inactive: 0.4% |
| Fc1ccccc1NC1CCN(Cc2ccccc2)CC1 | inactive: -0.59% |
| Cc1ccc(NC2(C#N)CCN(Cc3ccccc3)CC2)cc1 | inactive: 0.57% |
| COc1cccc(C(c2nnnn2C2CCCCC2)N2CCC(n3c(=O)[nH]c4ccccc43)CC2)c1OC (stereo not drawn) | inactive: -0.24% |
| CC(=O)N(c1ccccc1)C1CCNCC1 | inactive: 0.9% |
| CCC(c1nnnn1C1CCCCC1)N1CCC(n2c(=O)[nH]c3ccccc32)CC1 (stereo not drawn) | inactive: 0.88% |
| COc1cc(OC)cc(C(=O)NCC2(N3CCCCC3)CCCCC2)c1 | inactive: -0.2% |
| O=c1[nH]c2ccccc2n1C1CCN(C(c2ccnc3ccccc23)c2nnnn2C2CCCCC2)CC1 (stereo not drawn) | inactive: 1.46% |
| CN1CCC(Nc2ccc(Cl)cc2)CC1 | inactive: 0.5% |
| COc1cccc(C(=O)N(c2cc(C)cc(C)c2)C2CCN(C(=O)OC(C)(C)C)CC2)c1 | inactive: -0.79% |
| COc1cc(OC)cc(C(=O)NCC2(N3CCOCC3)CCCCC2)c1 | inactive: 0.52% |
| COc1cccc(C(c2nnnn2C2CCCC2)N2CCC(n3c(=O)[nH]c4ccccc43)CC2)c1OC (stereo not drawn) | inactive: -1.21% |
| CCC(CO)(C(=O)OC1CN2CCC1CC2)c1ccccc1 (stereo not drawn) | inactive: 0.25% |
| CC(C)(C)OC(=O)N1CCC(Nc2ccccc2)CC1 | inactive: 0.42% |
| NN(c1ccccc1)C1CCN(CCc2ccccc2)CC1 | inactive: -0.23% |

| SMILES | inhibition |
| --- | --- |
| O=C(O)C1(Nc2ccccc2)CCN(Cc2ccccc2)CC1 | inactive: -0.38% |
| O=c1[nH]c2ccccc2n1C1CCN(C(c2cc3ccccc3o2)c2nnnn2C2CCCC2)CC1 (stereo not drawn) | inactive: 2.01% |
| CCCOc1ccc(C(=O)NCC2(N(C)C)CCCCC2)cc1 | inactive: 1.02% |
| CCOc1ncccc1C(=O)NCC1(N2CCOCC2)CCCCC1 | inactive: 0.56% |
| CN1CCC(Nc2ccc(F)c(Cl)c2)CC1 | inactive: 0.5% |
| O=C(OC1CN2CCC1CC2)C1c2ccccc2C=Cc2ccccc21 (stereo not drawn) | inactive: -0.56% |
| O=c1[nH]c2ccccc2n1C1CCN(C(c2cccs2)c2nnnn2C2CCCC2)CC1 (stereo not drawn) | inactive: -0.37% |
| CCCCn1nnnc1C(c1cccc(OC)c1OC)N1CCC(n2c(=O)[nH]c3ccccc32)CC1 (stereo not drawn) | inactive: -0.39% |
| CCOC(=O)N1CCC(Nc2ccc(C)cc2)CC1 | inactive: 1.14% |
| COc1cccc(C(c2nnnn2C(C)(C)C)N2CCC(n3c(=O)[nH]c4ccccc43)CC2)c1OC (stereo not drawn) | inactive: -0.75% |
| N/C(=N\O)c1c(N)no[n+]1[O-] | inactive: 0.14% |
| O=c1[nH]c2ccccc2n1C1CCN(C(c2cccs2)c2nnnn2C2CCCCC2)CC1 (stereo not drawn) | inactive: 0.6% |
| COc1ccc(C(=O)NCC2(N3CCOCC3)CCCCC2)cc1OC | inactive: 0.4% |
| O=c1[nH]c2ccccc2n1C1CCN(C(c2ccnc3ccccc23)c2nnnn2C2CCCC2)CC1 (stereo not drawn) | inactive: -1.3% |
| CCCCn1nnnc1C(c1ccccc1)N1CCC(n2c(=O)[nH]c3ccccc32)CC1 (stereo not drawn) | inactive: -0.29% |
| COc1cc(C(=O)NCC2(N3CCOCC3)CCCCC2)cc(OC)c1C | inactive: -0.2% |
| O=C(NCC1(N2CCOCC2)CCCCC1)c1cc(Br)ccc1Cl | inactive: 0.09% |
| CC(C)(C)n1nnnc1C(c1cccc2ccccc12)N1CCC(n2c(=O)[nH]c3ccccc32)CC1 (stereo not drawn) | inactive: 0.84% |
| CN(C)C1(CNC(=O)c2cccc(C#N)c2)CCCCC1 | inactive: -0.35% |
| C/C(N)=N\P(=O)(Oc1ccccc1)Oc1ccccc1 | inactive: -0.55% |
| c1ccc(CN2CCC(Nc3ccccc3)CC2)cc1 | inactive: 0.68% |
| O=c1[nH]c2ccccc2n1C1CCN(C(c2ccccc2)c2nnnn2C2CCCC2)CC1 (stereo not drawn) | inactive: 2.09% |

| SMILES | inhibition |
| --- | --- |
| CCCN1CCC(Nc2cc(OC)cc(OC)c2)CC1 | inactive: 0.23% |
| Cc1cc(N(CCCl)CCCl)ccc1C=O | inactive: 3.58% |
| N#Cc1ccc(C(=O)NCC2(N3CCCCC3)CCCCC2)cc1 | inactive: -0.1% |
| CC(C)(C)OC(=O)N1CCC(N(C(=O)c2ccccc2)c2ccc(Cl)cc2)CC1 | inactive: -0.29% |
| O=C(NCC1(N2CCOCC2)CCCCC1)c1cc(=O)[nH]c2ccccc12 | inactive: -0.41% |
| COc1cc(C(=O)NCC2(N3CCCCC3)CCCCC2)ccc1OC(F)F | inactive: -1.77% |
| COc1ccc(NC2CCN(C(=O)OC(C)(C)C)CC2)cc1 | inactive: 1.49% |
| CC(C)c1ccc(C(=O)NCC2(N3CCOCC3)CCCCC2)cc1 | inactive: 0.14% |
| CN1CCN(CCOC(=O)C(O)(c2ccccc2)c2ccccc2)CC1 | inactive: -0.96% |
| CCCCn1nnnc1C(c1cccc2ccccc12)N1CCC(n2c(=O)[nH]c3ccccc32)CC1 (stereo not drawn) | inactive: 1.28% |
| O=C(NCC1(N2CCCCC2)CCCCC1)c1cccc(C(F)(F)F)c1 | inactive: -0.04% |
| CCN1CCC(Nc2ccc(Cl)cc2)CC1 | inactive: 0.41% |
| O=c1[nH]c2ccccc2n1C1CCN(C(c2ccccc2OC(F)(F)F)c2nnnn2C2CCCC2)CC1 (stereo not drawn) | inactive: 1.18% |
| N#CC1(Nc2ccccc2)CCN(CCc2ccccc2)CC1 | inactive: -0.25% |
| O=C(NCC1(N2CCCCC2)CCCCC1)c1cccc([N+](=O)[O-])c1 | inactive: 0% |
| CSc1ccc(C(=O)NCC2(N3CCOCC3)CCCCC2)cc1 | inactive: 1.09% |
| CC(C)(C)n1nnnc1C(c1ccccc1OC(F)(F)F)N1CCC(n2c(=O)[nH]c3ccccc32)CC1 (stereo not drawn) | inactive: -0.73% |
| O=C(NCC1(N2CCCCC2)CCCCC1)c1ccc(OC(F)F)cc1 | inactive: 0.45% |
| COc1ccc(C(c2nnnn2C2CCCC2)N2CCC(n3c(=O)[nH]c4ccccc43)CC2)cc1 (stereo not drawn) | inactive: -0.49% |
| Cc1ccc(C(=O)NCC2(N(C)C)CCCCC2)o1 | inactive: -1.33% |
| CCCOc1ccc(C(=O)NCC2(N(C)C)CCCCC2)cc1OC | inactive: -0.97% |
| CN1CCC(Nc2cccc(F)c2)CC1 | inactive: -1.2% |

| SMILES | inhibition |
| --- | --- |
| O=C(NCC1(N2CCCCC2)CCCCC1)c1cncc(Br)c1 | inactive: -1.18% |
| COc1cc(OC)c(C(=O)NCC2(N(C)C)CCCCC2)cc1OC | inactive: 0.79% |
| O=C(NCC1(N2CCOCC2)CCCCC1)c1cc(F)c(F)cc1Cl | inactive: 0.85% |
| CCC(c1nnnn1C(C)(C)C)N1CCC(n2c(=O)[nH]c3ccccc32)CC1 (stereo not drawn) | inactive: -0.1% |
| CCCCn1nnnc1C(c1ccnc2ccccc12)N1CCC(n2c(=O)[nH]c3ccccc32)CC1 (stereo not drawn) | inactive: -0.19% |
| CC(C)c1ccc(NC2CCN(C(=O)OC(C)(C)C)CC2)cc1 | inactive: -1.05% |
| COc1ccc(CN(CCCl)CCCl)cc1Cl | inactive: 1.21% |
| CN(C)c1cccc(C(=O)NCC2(N3CCCCC3)CCCCC2)c1 | inactive: -0.79% |
| O=C(NCC1(N2CCCCC2)CCCCC1)c1ccc(Cl)s1 | inactive: 0.72% |
| N#CC1(Nc2ccccc2)CCN(Cc2ccccc2)CC1 | inactive: -1.81% |
| O=c1[nH]c2ccccc2n1C1CCN(C(c2cc3ccccc3o2)c2nnnn2C2CCCCC2)CC1 (stereo not drawn) | inactive: 1.46% |
| O=C(OC1CN2CCC1CC2)C1c2ccccc2Oc2ccccc21 (stereo not drawn) | inactive: 0.1% |
| COc1ccc(Cl)cc1C(=O)NCC1(N2CCOCC2)CCCCC1 | inactive: -0.98% |
| CCOC(=O)N1CCC(Nc2ccc(OC)cc2)CC1 | inactive: 0% |
| CCCCn1nnnc1C(c1ccc(OC)cc1)N1CCC(n2c(=O)[nH]c3ccccc32)CC1 (stereo not drawn) | inactive: 0.81% |
| O=C(NCC1(N2CCCCC2)CCCCC1)c1ccc(Cl)nc1 | inactive: -0.33% |
| O=c1[nH]c2ccccc2n1C1CCN(C(c2ccccc2OC(F)(F)F)c2nnnn2C2CCCCC2)CC1 (stereo not drawn) | inactive: 0.09% |
| Cc1cc(C)cc(N(C(=O)c2ccccc2)C2CCN(C(=O)OC(C)(C)C)CC2)c1 | inactive: -0.59% |
| O=C(NCC1(N2CCOCC2)CCCCC1)c1cc2ccccc2o1 | inactive: 0.25% |
| CSc1ccccc1C(=O)NCC1(N2CCCCC2)CCCCC1 | inactive: -0.89% |
| Cc1cccc(NC2(C#N)CCN(Cc3ccccc3)CC2)c1 | inactive: 0.69% |
| COc1ccc(C(=O)NCC2(N3CCCCC3)CCCCC2)cc1 | inactive: 0.73% |

| SMILES | inhibition |
| --- | --- |
| COc1ccc(C(=O)NCC2(N3CCCCC3)CCCCC2)c(OC)c1OC | inactive: 1.77% |
| CC(C)(C)OC(=O)N1CCC(N(C(=O)c2ccccc2)c2ccc(F)cc2)CC1 | inactive: -0.79% |
| CCC(c1nnnn1C1CCCC1)N1CCC(n2c(=O)[nH]c3ccccc32)CC1 (stereo not drawn) | inactive: 0.57% |
| O=C(NCC1(N2CCCCC2)CCCCC1)c1ccc(=O)[nH]c1 | inactive: 0.35% |
| CCCCn1nnnc1C(CC)N1CCC(n2c(=O)[nH]c3ccccc32)CC1 (stereo not drawn) | inactive: 0.99% |
| O=C(NCC1(N2CCCCC2)CCCCC1)c1cccs1 | inactive: -0.88% |
| CCCCn1nnnc1C(c1cccs1)N1CCC(n2c(=O)[nH]c3ccccc32)CC1 (stereo not drawn) | inactive: -0.48% |
| CCOC(=O)N1CCC(Nc2cccc(C)c2)CC1 | inactive: 0.05% |
| COc1cc(C(=O)NCC2(N(C)C)CCCCC2)ccc1OC(F)F | inactive: 0.75% |
| O=c1[nH]c2ccccc2n1C1CCN(C(c2cccc3ccccc23)c2nnnn2C2CCCC2)CC1 (stereo not drawn) | inactive: -0.37% |
| O=c1[nH]c2ccccc2n1C1CCN(C(c2ccccc2)c2nnnn2C2CCCCC2)CC1 (stereo not drawn) | inactive: 0.33% |
| CCCCOc1ccc(C(=O)NCC2(N3CCOCC3)CCCCC2)cc1 | inactive: 0.34% |
| CCCCn1nnnc1C(c1cc2ccccc2o1)N1CCC(n2c(=O)[nH]c3ccccc32)CC1 (stereo not drawn) | inactive: -2.09% |
| O=P1(N(CCCl)CCCl)SCCCS1 | inactive: -0.76% |
| O=C(NCC1(N2CCCCC2)CCCCC1)c1ccc(F)cc1 | inactive: -0.2% |
| CCOC(=O)N1CCC(Nc2ccc(F)cc2)CC1 | inactive: 1.93% |
| COc1ccc(NC2CCN(CCc3ccccc3)CC2)c(OC)c1 | inactive: -0.94% |
| CC(C)(C)n1nnnc1C(c1ccccc1)N1CCC(n2c(=O)[nH]c3ccccc32)CC1 (stereo not drawn) | inactive: -0.29% |
| O=C1CCN(Cc2ccccc2)CC1 | inactive: -0.09% |
| CCOc1ccc(C)cc1CN(CCCl)CCCl | inactive: 0.18% |
